Measured values from patent US20050065080A1, “Use of leptin in fertility” (priority 2001, published 2005).

How the values were obtained:
[1] = system: ob/ob mice; test: Ovulation induction in antide-treated ob/ob mice (oocyte count); type: in vivo, mouse
Method: (§1) In the present example, ovulation was studied in ob/ob mice and in prepubertal C57BL/6 mice. All mice were treated with antide to prevent induction of LH by leptin. […] In a second group of mice, hCG was replaced by leptin. Following the various treatments, mice were sacrificed and oocytes were collected from the ampoule at 72 hours from the first injection and counted.
(§2) Control ob/ob mice were injected with PMSG (3 IU/animal, purchased from Tiferet Hacarmel pharmacy, Tel Yizhack, Israel) and after 48 h with hCG, the mimicker of LH (human hCG Gibco, USA 5 IU/animal). Similarly a group of ob/ob mice were injected with PMSG (3 IU/animal) and after 48 h with leptin (2×5 μg/g weight). 24 hours following the hCG or leptin treatment (72 hours from the PMSG treatment) the animals were sacrificed, the ovaries extracted and the formation of corpora lutea, a marker of ovulation, was examined by staining of ovarian sections. Ovulation was monitored by counting oocytes in the oviducts under the microscope.

[2] = system: uterus; test: Appearance of the uterus in treated mice; type: in vivo, mouse; conditions: after PMSG, or PMSG followed by hCG or leptin; leptin: ob/ob mice that ovulated
From the text: The difference between hCG and leptin treatment was also noticed in the appearance of the uterus. […] This appearance was clearly observed in PMSG-treated mice (not shown). […] These difference in the uterine physiology and appearance further support the notion that the leptin-induced ovulation is independent of LH activity.

[3] = system: progesterone; test: Serum progesterone radioimmunoassay in ob/ob and C57BL/6 mice; type: in vivo, mouse; conditions: PMSG at time 0, agent at 48 h, RIA at 72 h; FIG. 1
Method: Mice were treated with PMSG at time 0 and the indicated agent at 48 h. Progesterone was determined by RIA at 72 h in sera of C57BL/6 mice (grey bars) and of ob/ob mice (open bars).
Leptin induces the GnRH release from the Hypothalamus, which in turn releases FSH and LH from the Pituitary glands (Yu et al. 1997). To test if the follicle development and ovulation induced in the antide-treated C57BL mice and ob/ob mice by leptin is mediated by LH release, serum LH as well as progesterone, which is an LH-induced marker was measured. Measurement of plasma murine LH (mLH) and progesterone were carried out with specific radioimmunoassays. Progesterone was determined in mouse sera by RIA (Kohen 1975). LH was determined in mouse by a specific RIA, obtained trough the National Hormone & Pituitary Program, harbor-UCLA Medical Center (Torrance, California). The levels of mLH were below 0.2 ng/ml in all cases (Table 2). The levels of LH remained low throughout the follicular growth and ovulation in leptin-treated mice. However, it is difficult to detect the LH surge even in positive controls. Therefore, measurement of the LH-induced serum progesterone serve as a more reliable marker of circulating LH.

[4] = system: C57BL/6 mice; test: Ovulation induction in antide-treated prepubertal C57BL/6 mice (oocyte count); type: in vivo, mouse
Method: as §1, §2

[5] = system: ADAMTS-1; test: ADAMTS-1 expression in cultured pre-ovulatory follicles (quantitative RT-PCR); type: cell-based, mouse; conditions: 17 h; leptin 250 ng/ml or hCG 1 IU; normalized to ribosomal protein L19; FIG. 2
Method: Pre-ovulatory follicles were removed cultured and further treated for 17 h in the absence (c) or presence of either leptin (250 ng/ml) or hCG (1 IU). Total RNA was isolated from the follicles and subjected to quantitative RT-PCR with specific primers for two proteases, ADAMTS-1 and Cathepsin L. The PCR products were resolved in agarose gel electrophoresis and scanned. The RNAs levels of ADAMTS-1 were normalized to the RNAs levels of ribosomal protein
To test whether leptin can induce the expression of ADAMTS-1 and cathepsin L by acting directly on the ovary, in vitro experiments were preformed on pre-ovulatory follicles obtained from 21 days old C57BL/6 mice treated with PMSG (3 IU/animal) for 48 h. Pre-ovulatory follicles were removed, cultured and further treated for 17 h in the absence or presence of either leptin (250 ng/ml) or hCG (1 IU). Total RNA was isolated from the follicles and subjected to quantitative RT-PCR using the LightCycler™ (Roche diagnostics). The primers used for the detection of murine ADAMTS-1 transcripts were: […]
The RNAs levels of ADAMTS-1 and cathepsin L detected in agarose gel electrophoresis of the PCR products were normalized to the RNAs levels of murine ribosomal protein L19

[6] = antide-treated, PMSG at 0 h, leptin or hCG at 48 h, oocytes counted at 72 h, range

human chorionic gonadotropin [hCG, reference compound]
ovulation (oocytes in the oviducts) ([1]; PMSG then agent at 48 h, summary of Table 1): ovulation was observed
Oocyte count in ob/ob mice [1, 6]: (1-6) oocytes per mouse
uterus distension and hyperemia [2]: the distension and hyperemia subside
serum progesterone [3]: increased serum progesterone
mice ovulated, C57BL/6 mice ([4]; antide + PMSG (48 h) then leptin or hCG (24 h)): 3 out of 3 mice
Oocyte count in C57BL/6 mice [4, 6]: (12-28)
induction of ADAMTS-1 RNA [5]: significant induction
